Target: Autotaxin (Rattus norvegicus) (UniProt Q64610)
Experiment: Inhibition of rat ATX lysoPLD activity using LPC as substrate assessed as residual activity measured after 60 mins by HVA fluorescence based analysis relative to control

C[C@H](CCC(=O)O)[C@H]1CC[C@H]2[C@@H]3[C@@H](O)C[C@@H]4C[C@H](O)CC[C@]4(C)[C@H]3CC[C@]12C
Activity: 61%
